# Hits are enriched below; roughly 2.3% of the tested compounds scored in any of these assays.
# Nrf2 activator: activators of Nrf2 (ARE) signaling; AID 624171; Potency, µM (titrated, usually from 46.1 µM), for inactives: at the top dose activation, most hits filed as activators; 410,000 compounds, 0.31% hits; AREc32 ARE-luciferase reporter (MCF7-derived line), luminescence, 24 h; further: potency means the concentration at half of the fitted maximal effect; % of control where 0% means no effect; nearly all actives have a fitted effect of over 65% in size
#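 Nrf2 activation is followed as ARE-luciferase induction in the AREc32 line after one day of compound treatment; luminescence is read with Steady-Glo.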
# A549 viability: kills or reduces viability of A549 cells in Nrf2 counter-screen; A549 ARE-Fluc cells, CellTiter-Fluor viability, 18-24 h; Potency, µM (highest dose often 46 µM), for inactives: top-dose activity change, negative = cytotoxicity, actives largely listed as inhibitors; 390,000 compounds, 0.16% hits; further: potency means the concentration at half of the fitted maximal effect; on the % scale 0 is the no-effect control and ±100 the full control effect
#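 A549 ARE-Fluc cells in 5% FBS OPTI-MEM, 5000 cells/well, rested 2 h then exposed to compounds in concentration-response for 18-24 h at 37 °C. Viability by CellTiter-Fluor fluorescence (Ex 405/Em 525) after 30 min; luciferase luminescence (BugLite, 15 min, RT) read afterwards.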
# Nrf2 block: blocks Nrf2 signaling | A549 ARE-Fluc reporter, luciferase luminescence, 18-24 h | Potency, µM (titrated, usually from 46 µM), for the others: top-dose activity change, negative = inhibition, actives largely listed as inhibitors | 360,000 compounds, 2.1% hits | AID 504444; further: potency means the concentration at half of the fitted maximal effect; on the % scale 0 is the no-effect control and ±100 the full control effect; nearly all actives have a fitted effect of over 60% in size
#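 Quantitative HTS in A549 cells stably bearing an antioxidant response element-firefly luciferase construct. Inhibition of Nrf2-driven transcription was scored by luminescence after 18-24 h of compound exposure at 37 °C.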
# Mito fusion yeast: inhibitors of mitochondrial division or activators of mitochondrial fusion. S. cerevisiae fusion-defective mutant growth rescue, CellTiterGlo 48 h. Potency, µM (doses to about 46.1 µM), for the others: at the top dose growth rescue (activation), hits mostly activators. 320,000 compounds, 0.23% hits. AID 485298; further: potency means the concentration at half of the fitted maximal effect; % of control where 0% means no effect; nearly all actives have a fitted effect of over 45% in size
#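 S. cerevisiae fusion-defective temperature-sensitive mutants (e.g. fzo1-1, mgm1-5) grown 48 h at 37C in YPEG (ethanol/glycerol non-fermentable) medium with 23 nl compound per well; growth rescue read as CellTiterGlo luminescence.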
# miR-21 FLuc: raises the signal of a miR-21 reporter | HeLa miR-21 FLuc reporter, luciferase, 48 h | Potency, µM (highest dose often 38.3 µM), without a hit: at the top dose reporter change, positive = more light | 340,000 tested, under 10 active; active = well fitted rising curve with a large enough effect; inconclusive = small, poorly fitted or top-dose-only effect; inactive = no such curve, though single readings can be large or run the other way;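 note: % of control where 0% means no effect; miR-21 action dims this reporter so a rising signal means less miR-21 action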
#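 HeLa miR-21-FLuc reporter line, endogenous miR-21; 2000 cells/well in DMEM/10% FBS; compound titration up to ~40uM final, 48 h, 37 degree Celsius; luciferase detection reagent, 15 min lysis, CCD luminescence.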
# Glioma ERSR ind: inducers of ER stress response in human glioma cells; U87-MG GRP78 promoter luciferase reporter, 16 h; Potency, µM, inactives show at the highest dose activation, actives largely listed as activators; 420,000 compounds, 0.02% hits; further: potency means the concentration at half of the fitted maximal effect; series mostly up to about 76 µM; % of control where 0% means no effect; nearly all actives have a fitted effect of over 35% in size
#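 Stably transfected U87-MG glioma cells carrying a GRP78-based luciferase sensor; 16 h compound incubation. Luminescence end-point read 10 min after Bright-Glo addition at room temperature.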
# Numbers without * were called inactive; u = inconclusive; x = no result. Unless noted, the call rests on the fitted dose curve; in most records, active means well fitted curve in the direction sought with a large enough effect; inconclusive means small, poorly fitted or top-dose-only effect, or another doubt; inactive means no such curve, though single readings can be large; an effect the other way counts as inactive or inconclusive.
# A first look, six compounds:
SMILES,Nrf2 activator,A549 viability,Nrf2 block,Mito fusion yeast,miR-21 FLuc,Glioma ERSR ind
COc1cccc(C(=O)Nc2ccc3c(c2)CCCN3C(=O)c2cccs2)c1OC,4%,-11%,21µM*,6%,11%,-1%
COc1ccc(C(=O)Nc2ccc3c(c2)CCCN3C(=O)c2cccs2)c(OC)c1,0%,-4%,-1%,1%,28%,-4%
CSc1nc2nc(C(F)(F)F)cc(-c3ccccc3)n2n1,14µM*,-4%,1%,5%,-7%,-1%
O=C(O)CSc1nc2ccccc2n1-c1ccccc1,0%,u,-19%,-2%,-3%,-4%
Cc1ccc(S(=O)(=O)N2CCN(c3nc(-c4ccccc4)nc4ccccc34)CC2)cc1,x,-2%,29%,x,x,-2%
NS(=O)(=O)c1ccc(S(=O)(=O)N2CCN(c3nc(-c4ccccc4)nc4ccccc34)CC2)cc1,x,-12%,23µM*,x,x,x

# The whole of this part, repeating the preview:
SMILES,Nrf2 activator,A549 viability,Nrf2 block,Mito fusion yeast,miR-21 FLuc,Glioma ERSR ind
COc1cccc(C(=O)Nc2ccc3c(c2)CCCN3C(=O)c2cccs2)c1OC,4%,-11%,21µM*,6%,11%,-1%
COc1ccc(C(=O)Nc2ccc3c(c2)CCCN3C(=O)c2cccs2)c(OC)c1,0%,-4%,-1%,1%,28%,-4%
CSc1nc2nc(C(F)(F)F)cc(-c3ccccc3)n2n1,14µM*,-4%,1%,5%,-7%,-1%
O=C(O)CSc1nc2ccccc2n1-c1ccccc1,0%,u,-19%,-2%,-3%,-4%
Cc1ccc(S(=O)(=O)N2CCN(c3nc(-c4ccccc4)nc4ccccc34)CC2)cc1,x,-2%,29%,x,x,-2%
NS(=O)(=O)c1ccc(S(=O)(=O)N2CCN(c3nc(-c4ccccc4)nc4ccccc34)CC2)cc1,x,-12%,23µM*,x,x,x
CCCc1cc(N2CCN(c3ccccc3F)CC2)n2cnnc2n1,-1%,-13%,16µM*,x,u,-2%
Cc1cc(OCC(=O)N(C)Cc2ccccc2)cc(C)c1Cl,0%,1%,1%,7%,-9%,-2%
c1ccc(CSc2nccc(-c3ccco3)n2)cc1,10µM*,7%,8%,x,x,1%
c1ccc(CSc2n[nH]c(-c3ccco3)n2)cc1,3%,-15%,2%,-1%,-43%,-7%
COCC(C)n1c(SCc2ccc(OC)c(F)c2)nc2ccccc2c1=O (stereo not drawn),0%,5%,23µM*,4%,3%,-3%
O=C(Nc1ccccc1)N1CCN(c2nc(-c3ccccc3)ns2)CC1,2%,-14%,23µM*,8%,9%,4%
O=C(Nc1ccccc1Cl)N1CCCN(c2nc(-c3ccccc3)ns2)CC1,4%,-16%,u,8%,17%,-3%
Cc1c(Cl)cccc1NC(=O)N1CCCN(c2nc(-c3ccccc3)ns2)CC1,2%,-2%,21µM*,-10%,19%,-2%
CSc1ncccc1C(=O)OCC(=O)NC12CC3CC(CC(C3)C1)C2,0%,-3%,5%,x,x,-2%
COc1ccccc1-n1c(SC)nc2c(sc(=S)n2-c2ccccc2)c1=O,-1%,-18%,1%,1%,3%,-1%
COc1ccccc1-n1c(=S)sc2c(=O)n(Cc3ccco3)c(SC)nc21,0%,2%,8.2µM*,26%,-8%,0%
CCCCc1cc(=O)oc2cc(OS(C)(=O)=O)ccc12,9%,-7%,21%,16µM*,-58%,-3%
C[C@]12c3[nH]c4ccc(Cl)cc4c3CCN1C(=O)[C@@H](CC(=O)NCc1ccco1)C[C@@H]2C(=O)N1CCOCC1,4%,0%,7%,x,x,-1%
Cc1c(N2C(=O)/C(=C/c3ccc(N(C)C)cc3)N(C)C2=S)c(=O)n(-c2ccccc2)n1C,-1%,23µM*,-8%,x,x,4%
CCOC(=O)c1c(C)[nH]c(CCC(=O)NCc2cccc(C)c2)c1C,3%,-2%,x,x,-2%,-1%
O=C(Nc1cccc(F)c1)C1CCCN(C(=O)c2ccc(Cl)cc2)C1 (stereo not drawn),15%,-11%,7.3µM*,9%,x,0%
O=C(Nc1ccccc1)C1CCCN(C(=O)c2ccc(Cl)cc2)C1 (stereo not drawn),0%,1%,u,4%,8%,-2%
O=C(Nc1cccc(C(F)(F)F)c1)C1CCN(S(=O)(=O)c2ccc(N3CCCC3=O)cc2)CC1,0%,u,13µM*,0%,u,-5%
O=C(Nc1cccc(S(=O)(=O)N2CCCCCC2)c1)C1CCN(C(=O)c2ccc(F)cc2)CC1,0%,-4%,26µM*,-4%,x,-1%
COc1cc(/C=C/C(=O)c2ccc(Cl)s2)cc(OC)c1O,u,-14%,u,-3%,u,2%
COc1ccc2occ(CC(=O)Nc3ccc(S(=O)(=O)Nc4nccc(C)n4)cc3)c2c1,1%,-3%,6%,x,-1%,-2%
Cc1sc(NC(=O)c2ccc(OCC(C)C)cc2)c(C(N)=O)c1-c1ccc(Cl)cc1Cl,3%,-9%,18µM*,-1%,-4%,-2%
CCCOc1ccc(C(=O)Nc2cccc(NC(=O)c3ccc(Cl)cc3Cl)c2)cc1,0%,-9%,-21%,x,-20%,-4%
O=C(Nc1nnc(CSCc2ccc(F)cc2)s1)c1cccc([N+](=O)[O-])c1,4%,u,18µM*,-1%,0%,-3%
Brc1ccc2ncnc(Nc3ccc(N4CCOCC4)cc3)c2c1,2%,-18%,12µM*,-6%,18%,-4%
C=CCN(c1ccccc1OC)S(=O)(=O)c1cccc(C(=O)OCC(=O)c2c(N)n(C)c(=O)n(C)c2=O)c1,3%,1%,21µM*,x,x,-1%
COC(=O)c1ccsc1NC(=O)CSc1nnnn1Cc1ccccc1,7.9µM*,6%,-7%,12%,-1%,1%
O=C(Nc1ccc(Cl)cc1)N1CCN(c2ccc3nnc(-c4ccccc4)n3n2)CC1,3%,-22%,26µM*,x,-8%,-4%
COc1ccccc1NC(=O)N1CCN(c2ccc3nnc(-c4ccc(F)cc4)n3n2)CC1,8%,-9%,9.2µM*,1%,1%,1%
Cc1ccn(CC(C)C(=O)O)n1 (stereo not drawn),0%,1%,-1%,-1%,-1%,1%
CCOc1ccc(CNC(=O)C(C)n2ncn3cccc3c2=O)cc1 (stereo not drawn),-1%,-1%,u,x,-10%,-4%
Cc1ccc(N(C)S(=O)(=O)c2ccc3[nH]cc(C(=O)O)c(=O)c3c2)cc1C,-1%,0%,4%,x,1%,-1%
Cc1cc(NS(=O)(=O)c2ccc(NC(=O)Nc3cccc(C(F)(F)F)c3)cc2)no1,0%,-14%,-8%,-6%,-3%,-3%
CCC(C)(C)C1CCC2(CC1)NC(=O)N(CC(=O)N(C)CC(=O)Nc1ccccc1C(F)(F)F)C2=O (stereo not drawn),-1%,-20%,15µM*,-1%,-15%,-3%
O=C(CN1C(=O)NC2(CCCC2)C1=O)Nc1ccccc1C(F)(F)F,-1%,-9%,-1%,3%,0%,-5%
COc1ccc(-c2cn3cc([N+](=O)[O-])ccc3n2)cc1OC,0%,-1%,3.7µM*,2%,-45%,-2%
Cc1ccc(-c2csc(C(O)(c3ccccc3)C(F)(F)F)n2)cc1C (stereo not drawn),-1%,x,x,x,x,-11%
O=C(O)c1cc2ccccc2c2cc(Br)ccc12,0%,-4%,-23%,11µM*,-5%,-1%

# Screens from PubChem.
